# Like-named read-outs stand apart in the source and are kept apart here.
substance,measurement,setting,value
4‐nitrophenol glucuronide [4‐NP Glucuronide],Mean 4-NP glucuronide formation,pool 1 following one FT cycle,70.4 nmol/min/min
same,Mean 4-NP glucuronide formation,pool 2 following one FT cycle,71.4 nmol/min/min
